Laboratory results published in publication PMC3108484 (Frontiers in Pharmacology, 2011).

Amino acid sequences for entries named in this document (tags omitted). A change or cut given only in a name is not applied to a line headed by its entry.
UniProt O70528: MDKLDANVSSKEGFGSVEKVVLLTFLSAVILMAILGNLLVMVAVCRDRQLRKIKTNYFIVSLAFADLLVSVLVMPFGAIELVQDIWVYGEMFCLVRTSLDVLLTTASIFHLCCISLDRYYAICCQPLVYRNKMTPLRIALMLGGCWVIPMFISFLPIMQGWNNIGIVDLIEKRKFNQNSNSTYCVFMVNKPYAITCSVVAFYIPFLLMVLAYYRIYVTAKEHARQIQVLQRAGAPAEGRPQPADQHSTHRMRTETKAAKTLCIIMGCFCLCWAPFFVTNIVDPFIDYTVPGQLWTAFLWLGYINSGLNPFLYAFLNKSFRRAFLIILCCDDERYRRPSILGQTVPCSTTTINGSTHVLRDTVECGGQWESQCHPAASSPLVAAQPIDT

Target: 5-HT4 receptor (Cavia porcellus, UniProt O70528)
Assay: Guinea pig colonic longitudinal muscle/myenteric plexus
Details: isolated tissue, % of primed 5-HT (0.3 μM) maximum

SMILES: COCCCN1CCC(NC(=O)c2cc(Cl)c(N)c3c2OCC3)CC1 [Prucalopride, prucalopride]
- Guinea pig colonic LMMP contractile activity IA (mean % 5-HT max ± SEM): 81 ± 2 % 5-HT max
- Guinea pig colonic LMMP contractile activity IA (mean % 5-HT max ± SEM) (listed as prucalopride): 81 % 5-HT max
